Earlier results as cited in patent publication US9457059B2, “Compositions and methods for treating renal failure” (La Jolla Pharmaceutical Company, priority 2013, dated 2016).

Test system: patients with hepatorenal syndrome
Details: albumin given intravenously, plasma volume expansion

Substance: albumin: albumin given intravenously for expansion of the plasma volume
- renal function: shown to improve renal function
